For orientation: Ki means a measure of affinity in units of concentration, obtained from inhibition or displacement. A lower Ki goes with a stronger hold on the target.

For the test, the target named is Induced myeloid leukemia cell differentiation protein Mcl-1 (Homo sapiens, UniProt Q07820).
Compound `Cc1cc(OCCCc2c(C(=O)O)[nH]c3cccc(Cl)c23)ccc1Cl` gave a Ki of 0.81 µM.
`Cc1cc(OCCCc2c(C(=O)O)[nH]c3cc(Cl)ccc23)ccc1Cl` had a Ki of 0.19 µM.
Compound `Cn1c(C(=O)O)c(CCCOc2cccc3ccccc23)c2ccccc21` had a Ki of 0.26 µM.
Consider `Cc1cccc2c(-c3ccccc3)c(C(=O)O)[nH]c12`, for which the Ki turned out to be 136 µM.
The value for `Cc1ccccc1OCCCc1c(C(=O)O)[nH]c2ccccc12` was 15 µM.
The compound `Cc1c(C(=O)O)oc2ccc(Cl)cc12` came in with a Ki of 52 µM.
Compound `O=C(O)c1[nH]c2ccccc2c1CCCOc1cccc(-c2ccccc2)c1` gave a Ki of 7.7 µM.
Next, `O=C(O)c1[nH]c2ccccc2c1CCCOc1ccccc1C(F)(F)F`: 8.8 µM; `O=C(O)c1[nH]c2ccccc2c1CCCOc1cccc(Oc2ccccc2)c1`: 5.2 µM; `Cc1ccc2c(Cl)c(C(=O)O)sc2c1`: 40 µM.
Next, `Cc1cc(OCCCc2c(C(=O)O)sc3cccc(Cl)c23)cc(C)c1Cl`: 1.3 µM; `O=C(O)c1[nH]c2ccccc2c1CCCOc1ccc2ccccc2c1`: 7.5 µM.
`Cc1cc(OCCCc2c(C(=O)O)sc3c(Cl)cccc23)cc(C)c1Cl`: the affinity corresponds to a Ki of 0.75 µM. This Ki lies about 10-fold lower than the previous one.
In turn, `O=C(O)c1[nH]c2cc(Cl)ccc2c1CCCOc1cccc2ccccc12` showed a Ki of 0.075 µM.
For the compound `Cc1c(C(=O)O)oc2cc(Cl)ccc12`, the Ki came out at 23 µM.
The value for `CCc1cc(OCCCc2c(C(=O)O)[nH]c3ccccc23)ccc1Cl` was 1.1 µM.
The value for `O=C(O)c1sc2cccc(Cl)c2c1CCCOc1cccc2ccccc12` was 1.6 µM.
Compound `O=C(O)c1[nH]c2ccccc2c1CCCOc1cccc2c1CCCC2` returned a Ki of 0.3 µM. Against the preceding compound, the Ki is about 5.3-fold lower.
With `O=C(O)c1sc2cccc(Cl)c2c1Cl`, the affinity corresponds to a Ki of 22 µM.
Turning to `Cc1ccc(OCCCc2c(C(=O)O)[nH]c3ccccc23)cc1`, affinity was put at a Ki of 16 µM.
The value for `O=C(O)c1sc2c(Cl)cccc2c1CCCOc1cccc2ccccc12` was 0.72 µM; that for `Cn1c(C(=O)O)cc2cc(Br)ccc21` was 81 µM; that for `O=C(O)c1[nH]c2ccccc2c1CCCOc1ccc(Cl)cc1` was 9.8 µM.
For `Cc1cc(OCCCc2c(C(=O)O)oc3ccccc23)cc(C)c1Cl`, the Ki stood at 3 µM.
The value for `Cc1c(C(=O)O)oc2c(C)cccc12` was 102 µM; that for `O=C(O)c1[nH]c2ccccc2c1CCCOc1ccc(Oc2ccccc2)cc1` was 6.4 µM.
On to `O=C(O)c1sc2ccccc2c1Cl`, for which the Ki was 131 µM. Compared with the last compound, the Ki is about 20-fold higher.
Compound `Cc1cccc(OCCCc2c(C(=O)O)[nH]c3ccccc23)c1` gave an inhibition constant Ki of 1.9 µM. This Ki is about 69-fold lower than that of the compound before.
As for `Cc1cc(OCCCc2c(C(=O)O)n(C)c3ccccc23)cc(C)c1Cl`, the Ki amounted to 0.18 µM.
In turn, `Cn1c(C(=O)O)cc2ccccc21` came in with an inhibition constant (Ki) of 160 µM.
In the case of `O=C(O)c1sc2cc(Cl)ccc2c1Cl`, the Ki was determined as 59 µM.
As for `O=C(O)c1cc2c(Br)cc(Cl)cc2o1`, affinity was put at a Ki of 90 µM.
`O=C(O)c1[nH]c2ccccc2c1CCCOc1ccc(Cl)c2ccccc12` came in with an inhibitory constant (Ki) of 0.48 µM.
For the compound `Cc1cc(OCCCc2c(C(=O)O)[nH]c3ccccc23)cc(C)c1Cl`, the affinity corresponds to a Ki of 0.3 µM.
Next, `Cc1cc(OCCCc2c(C(=O)O)sc3cc(Cl)ccc23)cc(C)c1Cl`: 0.25 µM; `O=C(O)c1[nH]c2ccccc2c1CCCOc1ccc(C(F)(F)F)cc1`: 9.9 µM; `Cc1cc(OCCCc2c(C(=O)O)[nH]c3ccccc23)ccc1Cl`: 0.38 µM.
Consider `O=C(O)c1oc2ccc(Cl)cc2c1CCCOc1cccc2ccccc12`, for which the Ki amounted to 2.5 µM.
As to `Cc1cc(OCCCc2c(C(=O)O)[nH]c3cccc(Cl)c23)cc(C)c1Cl`, the affinity corresponds to a Ki of 0.16 µM.
